Measured values taken from PubChem BioAssay AID488839 (Broad Institute, 2010).
Only a part is listed here, and it is no random draw. Calls of active or inactive are those of the source.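 How the source made its calls: active means highest replicate inhibition of at least 50% and at least 75% of replicates reaching 50%; inconclusive means only one of the two criteria met; inactive means both criteria failed.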

Amino acid sequences for entries named in this document (tags omitted).
UniProt Q00535, whole entry, looked up: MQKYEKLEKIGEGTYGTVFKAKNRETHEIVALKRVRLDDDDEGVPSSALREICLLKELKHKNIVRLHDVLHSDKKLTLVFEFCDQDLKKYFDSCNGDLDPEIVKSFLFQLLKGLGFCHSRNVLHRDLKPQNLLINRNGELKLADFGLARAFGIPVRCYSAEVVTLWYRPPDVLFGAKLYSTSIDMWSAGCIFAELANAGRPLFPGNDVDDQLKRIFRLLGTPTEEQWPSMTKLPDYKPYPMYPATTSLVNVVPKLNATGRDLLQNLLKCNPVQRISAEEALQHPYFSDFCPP
UniProt Q15078, whole entry, looked up: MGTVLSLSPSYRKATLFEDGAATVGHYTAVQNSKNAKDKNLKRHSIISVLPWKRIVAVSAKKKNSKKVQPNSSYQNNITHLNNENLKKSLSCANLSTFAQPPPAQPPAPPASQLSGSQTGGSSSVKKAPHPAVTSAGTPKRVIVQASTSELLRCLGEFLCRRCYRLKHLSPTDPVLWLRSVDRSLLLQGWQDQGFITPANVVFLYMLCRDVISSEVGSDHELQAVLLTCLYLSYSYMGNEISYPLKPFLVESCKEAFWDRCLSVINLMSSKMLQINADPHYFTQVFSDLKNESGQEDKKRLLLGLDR

What follows are compounds tested against Cyclin-dependent kinase 5 (Homo sapiens) + Cyclin-dependent kinase 5 activator 1 (Homo sapiens) (UniProt Q00535+Q15078) (assay: CDK5/p35 phosphotransfer blockade – biochemical, single concentration, primary screen (AID 488839;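 further: plate controls were DMSO neutral control for no effect and GW8510 at 10 µM for full effect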)). Details: Recombinant CDK5/p35, ADP-Glo luminescence, 60 min; at 10 µM; stronger effect = higher value.
With Cc1ccc(OP(=O)(Nc2ccccn2)Oc2ccc(C)cc2)cc1 the inhibition was inactive: 3.57%.
